{
  "source": "patent US10160948B2",
  "about": "“Pluripotent embryonic-like stem cells, compositions, methods and uses thereof” (ABT HOLDING COMPANY, priority 1999, dated 2018)",
  "key": {"[1]": {"tested_on": "progenitor stem cells", "experiment": "Proliferation and phenotypic responses to bioactive factors: progenitor cells", "assay_type": "cell-based", "description": "(§1) Having access to mixed populations of progenitor stem cells, progenitor stem cell clones, and pluripotent stem cell clones permits one to address the influence of various bioactive factors (e.g. recombinant growth factors, purified compounds, and novel inductive factors) on the growth characteristics and phenotypic expression of these stem cells. In initial studies, we have tested fourteen bioactive factors with these cells, both singly and in combination (TABLE 12). Three general categories of activities have been shown (proliferation, lineage-commitment, and lineage-progression). The bioactive factors could produce either stimulatory or inhibitory effects. The effects could be either general across all the lineages or limited to one or more specific tissue lineages.\nCryopreserved cells are thawed and plated in MSC-1 at 5, 10, or 20×10^3 cells per well of gelatinized 24-well plates following the standard protocol. Twenty-four hours after initial plating the medium is changed to testing medium (TM) 1 to 6 (TM-1, TM-2, TM-3, TM-4, TM-5, or TM-6). […] The ratios of Ultraculture to medium to antibiotics present in each testing medium was determined empirically for each lot of Ultraculture, based on its ability to maintain steady-state culture conditions in both populations of avian progenitor and pluripotent cells. […]"}, "[2]": {"tested_on": "pluripotent stem cells", "experiment": "Proliferation and phenotypic responses to bioactive factors: pluripotent cells", "assay_type": "cell-based", "description": "as §1\nCryopreserved cells are thawed and plated in MSC-1 at 5, 10, or 20×10^3 cells per well of gelatinized 24-well plates following the standard protocol. Twenty-four hours after initial plating the medium is changed to testing medium (TM) 1 to 6 (TM-1, TM-2, TM-3, TM-4, TM-5, or TM-6). TM-1 to TM-4 consist of Ultraculture (cat. no. 12-725B, lot. nos. OMO455 [TM-1], 1M1724 [TM-2], 2M0420 [TM-3], or 2M0274 [TM-4], Bio-Whittaker, Walkersville, Md.), medium (EMEM or Opti-MEM 0.01 mM β-mercaptoethanol), and 1% (v/v) antibiotic-antimycotic, pH 7.4. TM-5 consists of 98% (v/v) medium, 1% (v/v) HS, and 1% (v/v) antibiotic-antimycotic, pH 7.4. TM-6 consists of 98.5% (v/v) medium, 0.5% (v/v) HS, and 1% (v/v) antibiotic-antimycotic, pH 7.4. Testing medium containing ratios of Ultraculture: medium (EMEM or Opti-MEM+0.01 mM β-mercaptoethanol): antibiotics (+antimycotics) maintained both progenitor and pluripotent cells in “steady-state” conditions for a minimum of 30 days in culture, and as long as 120 days in culture. […] The ratios of Ultraculture to medium to antibiotics present in each testing medium was determined empirically for each lot of Ultraculture, based on its ability to maintain steady-state culture conditions in both populations of avian progenitor and pluripotent cells. […]"}, "[3]": {"conditions": "presence and approximate distribution of differentiated phenotypes within the culture wells"}},
  "data": [
    {"molecule": "BMP-2: Bone morphogenetic protein-2 (protein, UniProt P12643 283-396, looked up) Bone morphogenetic protein 2: QAKHKQRKRLKSSCKRHPLYVDFSDVGWNDWIVAPPGYHAFYCHGECPFPLADHLNSTNHAIVQTLVNSVNSKIPKACCVPTELSAISMLYLDENEKVVLKNYQDMVVEGCGCR", "values": [
      {"measurement": "Proliferation, Progenitor: number of times the agent increased the DNA content per well versus its respective control", "setting": "[1]", "result": 2, "unit": "times"},
      {"measurement": "Phenotypic Expression, Progenitor", "setting": "[1]; [3]", "result": "C+++/All+"},
      {"measurement": "Proliferation, Pluripotent: number of times the agent increased the DNA content per well versus its respective control", "setting": "[2]", "result": 2, "unit": "times"},
      {"measurement": "activity on pluripotent and progenitor stem cells, in words", "setting": "[2]; pluripotent and progenitor cells", "result": "specific chondrogenic lineage-commitment agent in pluripotent cells"},
      {"measurement": "Phenotypic Expression, Pluripotent", "setting": "[2]; [3]", "result": "C++++"}
    ]}
  ]
}
